Measured values taken from patent US20250195530A1, “POLQ INHIBITORS” (ASTRAZENECA AB, priority 2022, published 2025).

Chains of the proteins cited; added tags and fusions are not shown. Residues count along the entry.
UniProt O75417, 1780-2590: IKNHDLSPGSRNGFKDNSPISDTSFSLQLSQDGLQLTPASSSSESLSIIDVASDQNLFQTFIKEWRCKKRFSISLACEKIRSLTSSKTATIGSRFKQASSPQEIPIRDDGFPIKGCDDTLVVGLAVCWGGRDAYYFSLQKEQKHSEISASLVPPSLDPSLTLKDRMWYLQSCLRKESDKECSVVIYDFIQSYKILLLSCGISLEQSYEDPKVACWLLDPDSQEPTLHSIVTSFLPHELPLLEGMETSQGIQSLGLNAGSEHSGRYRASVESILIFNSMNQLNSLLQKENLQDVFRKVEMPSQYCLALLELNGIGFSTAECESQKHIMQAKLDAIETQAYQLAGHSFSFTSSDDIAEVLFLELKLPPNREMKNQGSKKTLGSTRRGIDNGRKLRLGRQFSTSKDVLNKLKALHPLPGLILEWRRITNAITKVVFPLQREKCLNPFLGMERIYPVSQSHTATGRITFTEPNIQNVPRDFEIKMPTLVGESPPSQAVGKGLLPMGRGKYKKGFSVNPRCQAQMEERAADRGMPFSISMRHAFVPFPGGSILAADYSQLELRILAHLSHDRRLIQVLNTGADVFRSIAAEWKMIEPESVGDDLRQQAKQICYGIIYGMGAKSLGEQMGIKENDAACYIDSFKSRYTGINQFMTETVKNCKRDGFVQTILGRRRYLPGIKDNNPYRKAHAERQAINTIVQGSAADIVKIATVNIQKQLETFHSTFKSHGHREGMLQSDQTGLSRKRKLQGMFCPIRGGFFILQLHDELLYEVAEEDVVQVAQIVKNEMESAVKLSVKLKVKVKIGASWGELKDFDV

Target: isolated polymerase domain (I1780-V2590) of DNA polymerase theta (Polθ) (Homo sapiens (Human), UniProt O75417)
Assay: biochemical

Compound	IC50
CC(CCOc1ccc(-c2nc3c(OC4(C)CC4)ncnc3n2Cc2ccc(C#N)cc2)c(Cl)c1)C(=O)O (racemic) [Example U7, 4-(3-chloro-4-(9-(4-cyanobenzyl)-6-(1-methylcyclopropoxy)-9H-purin-8-yl)phenoxy)-2-methylbutanoic acid]	7.94 nM
CCC(CCOc1ccc(-c2nc3c(OC4(C)CC4)ncnc3n2Cc2cccc(Cl)c2)c(Cl)c1)C(=O)O (racemic) [Example T441, 4-(3-chloro-4-(9-(3-chlorobenzyl)-6-(1-methylcyclopropoxy)-9H-purin-8-yl)phenoxy)-2-ethylbutanoic acid]	7.94 nM
Cc1cnc(Cn2c(-c3ccc(OC4CCCN(C)CC4)cc3Cl)nc3c(OC4(C)CC4)ncnc32)s1 (single isomer, unassigned) [Example T390, 2-((8-(2-chloro-4-((1-methylazepan-4-yl)oxy)phenyl)-6-(1-methylcyclopropoxy)-9H-purin-9-yl)methyl)-5-methylthiazole]	3.98 nM
CC1(Oc2ncnc3c2nc(-c2ccc(NCCC(=O)O)cc2Cl)n3Cc2cccc(Cl)c2)CC1 [Example T97, 3-((3-chloro-4-(9-(3-chlorobenzyl)-6-(1-methylcyclopropoxy)-9H-purin-8-yl)phenyl)amino)propanoic acid]	5.01 nM
Cc1ccnc(Cn2c(-c3ccc(OC(C)CO)cc3Cl)nc3c(OC4(C)CC4)ncnc32)c1 (single isomer, unassigned) [Example T127, 2-(3-chloro-4-(6-(1-methylcyclopropoxy)-9-((4-methylpyridin-2-yl)methyl)-9H-purin-8-yl)phenoxy)propan-1-ol]	3.98 nM
Cc1ccnc(Cn2c(-c3ccc(CC(=O)N4CC5(CNC5)C4)cc3Cl)nc3c(OC4(C)CC4)ncnc32)c1 [Example T558, 2-(3-chloro-4-(6-(1-methylcyclopropoxy)-9-((4-methylpyridin-2-yl)methyl)-9H-purin-8-yl)phenyl)-1-(2,6-diazaspiro[3.3]heptan-2-yl)ethan-1-one]	3.16 nM
Cc1ccnc(Cn2c(-c3ccc(C(=O)N4CC(C)(O)C4)cc3Cl)nc3c(OC4(C)CC4)ncnc32)c1 [Example T314, (3-chloro-4-(6-(1-methylcyclopropoxy)-9-((4-methylpyridin-2-yl)methyl)-9H-purin-8-yl)phenyl)(3-hydroxy-3-methylazetidin-1-yl)methanone]	15.8 nM
Cc1ccnc(Cn2c(-c3ccc(CC(=O)N4C[C@@H](C)N[C@@H](C)C4)cc3Cl)nc3c(OC4(C)CC4)ncnc32)c1 [Example T606, 2-(3-chloro-4-(6-(1-methylcyclopropoxy)-9-((4-methylpyridin-2-yl)methyl)-9H-purin-8-yl)phenyl)-1-((3R,5S)-3,5-dimethylpiperazin-1-yl)ethan-1-one]	6.31 nM
CC1(Oc2ncnc3c2nc(-c2ccc(CC(N)=O)cc2Cl)n3Cc2ccc(F)cc2C#N)CC1 [Example T78, 2-(3-chloro-4-(9-(2-cyano-4-fluorobenzyl)-6-(1-methylcyclopropoxy)-9H-purin-8-yl)phenyl)acetamide]	158 nM
CC1(Oc2ncnc3c2nc(-c2ccc(OCCN4CCNCC4)cc2Cl)n3Cc2nnco2)CC1 [Example T76, 2-((8-(2-chloro-4-(2-(piperazin-1-yl)ethoxy)phenyl)-6-(1-methylcyclopropoxy)-9H-purin-9-yl)methyl)-1,3,4-oxadiazole]	1000 nM
CC(CCOc1ccc(-c2nc3c(OC4(C)CC4)ncnc3n2Cc2c(F)cccc2C#N)c(Cl)c1)C(=O)O (racemic) [Example U13, 4-(3-chloro-4-(9-(2-cyano-6-fluorobenzyl)-6-(1-methylcyclopropoxy)-9H-purin-8-yl)phenoxy)-2-methylbutanoic acid]	20 nM
CC1(Oc2ncnc3c2nc(-c2ccc(CC(N)=O)cc2Cl)n3Cc2ccc(C#N)cc2)CC1 [Example T83, 2-(3-chloro-4-(9-(4-cyanobenzyl)-6-(1-methylcyclopropoxy)-9H-purin-8-yl)phenyl)acetamide]	50.1 nM
CCOc1ccc(Cl)cc1Cn1c(-c2ccc(OCCC(C)C(=O)O)cc2Cl)nc2c(OC3(C)CC3)ncnc21 (racemic) [Example U59, 4-(3-chloro-4-(9-(5-chloro-2-ethoxybenzyl)-6-(1-methylcyclopropoxy)-9H-purin-8-yl)phenoxy)-2-methylbutanoic acid]	6.31 nM
CC1(Oc2ncnc3c2nc(-c2cccc(OCCC(=O)O)c2Cl)n3Cc2cc(Cl)ccc2C#N)CC1 [Example U96, 3-(2-chloro-3-(9-(5-chloro-2-cyanobenzyl)-6-(1-methylcyclopropoxy)-9H-purin-8-yl)phenoxy)propanoic acid]	3.98 nM
Cc1ccnc(Cn2c(-c3ccc(O[C@H]4CCN(C(=O)CO)C4)cc3Cl)nc3c(OC4(C)CC4)ncnc32)c1 [Example T483, (S)-1-(3-(3-chloro-4-(6-(1-methylcyclopropoxy)-9-((4-methylpyridin-2-yl)methyl)-9H-purin-8-yl)phenoxy)pyrrolidin-1-yl)-2-hydroxyethan-1-one]	7.94 nM
COc1ccc(Cl)cc1Cn1c(-c2cccc(OCC[C@@H](C)C(=O)O)c2Cl)nc2c(OC3(C)CC3)ncnc21 [Example U75, (R)-4-(2-chloro-3-(9-(5-chloro-2-methoxybenzyl)-6-(1-methylcyclopropoxy)-9H-purin-8-yl)phenoxy)-2-methylbutanoic acid]	3.16 nM
CC1(Oc2ncnc3c2nc(-c2ccc(OCC4(CC(=O)O)CC4)cc2Cl)n3Cc2ccccc2C#N)CC1 [Example U15, 2-(1-((3-chloro-4-(9-(2-cyanobenzyl)-6-(1-methylcyclopropoxy)-9H-purin-8-yl)phenoxy)methyl)cyclopropyl)acetic acid]	10 nM
Cc1ccnc(Cn2c(-c3ccc(OCCCF)cc3Cl)nc3c(OC4(C)CC4)ncnc32)c1 [Example T108, 8-(2-chloro-4-(3-fluoropropoxy)phenyl)-6-(1-methylcyclopropoxy)-9-((4-methylpyridin-2-yl)methyl)-9H-purine]	5.01 nM
COc1ccc(Cl)cc1Cn1c(-c2ccc(OCCOC(C)(C)C(=O)O)cc2Cl)nc2c(OC3(C)CC3)ncnc21 [Example U54, 2-(2-(3-chloro-4-(9-(5-chloro-2-methoxybenzyl)-6-(1-methylcyclopropoxy)-9H-purin-8-yl)phenoxy)ethoxy)-2-methylpropanoic acid]	10 nM
CO[C@H]1CCN(C(=O)c2ccc(-c3nc4c(OC5(C)CC5)ncnc4n3Cc3cc(C)ccn3)c(Cl)c2)C1 [Example T465, (S)-(3-chloro-4-(6-(1-methylcyclopropoxy)-9-((4-methylpyridin-2-yl)methyl)-9H-purin-8-yl)phenyl)(3-methoxypyrrolidin-1-yl)methanone]	15.8 nM
Cc1ccnc(Cn2c(-c3ccc(OCC(=O)NCC(C)(C)O)cc3Cl)nc3c(OC4(C)CC4)ncnc32)c1 [Example T517, 2-(3-chloro-4-(6-(1-methylcyclopropoxy)-9-((4-methylpyridin-2-yl)methyl)-9H-purin-8-yl)phenoxy)-N-(2-hydroxy-2-methylpropyl)acetamide]	7.94 nM
Cc1ccnc(Cn2c(-c3ccc(C(=O)N4CC[C@H](F)C4)cc3Cl)nc3c(OC4(C)CC4)ncnc32)c1 [Example T281, (S)-(3-chloro-4-(6-(1-methylcyclopropoxy)-9-((4-methylpyridin-2-yl)methyl)-9H-purin-8-yl)phenyl)(3-fluoropyrrolidin-1-yl)methanone]	20 nM
